What was measured:
pAKT = assay: Cytokine-stimulated phosphorylation in immunophenotypically defined cell populations from healthy donor BM (flow cytometry); type: cell-based, human; details: mean ± SD;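 as to pAKT S/N ratio: Phosphoprotein MFI normalized to lymphocyte MFI as internal negative control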
Method: (§1) Bone marrow (BM) samples were collected in 7.5 mL Iscove's modified Dulbecco's medium (IMDM) supplemented with 100U penicillin, 0.01 mg/mL streptomycin, and 70 μg/mL heparin sodium salt from 10 patients undergoing hip replacement surgery, who were otherwise healthy. These patients were from a pool of surgery patients, age 49 to 77, and represented 7 female and 8 male patients. Wright Giemsa stained slides prepared from these samples were examined by Hematopathologist (AC) to confirm that no underlying hematological disorders were present. These BM samples were rinsed twice with IMDM to release cells, filtered using a 100 μm Nylon cell strainer to remove marrow particles, and centrifuged for at RT fro 7 minutes at 200 g. The cell pellet was washed twice with sterile IMDM to remove traces of fat and re-suspended in IMDM to a concentration of 3×10^7 cells/mL.
(§2) To assess the signal transduction response after growth factor simulation, a series comprising two sets of tubes including about 3×10^6 cells/100 μL were incubated at 37° C. for 30 minutes. After this pre-incubation period, tubes with then processes with either a stimulant or inhibitor. For signal stimulation, tubes were incubated at 2 minutes, 3.5 minutes, 7 minutes, 15 minutes, and 30 minutes with one of the following cytokines to stimulate protein phosphorylation: 10 ng/100 μL SCF, 50 ng/100 μL FL, 10 ng/100 μL GM-CSF, 10 ng/100 μL IL-3, or 10 ng/100 μL G-CSF. To examine the effects of protein phosphorylation inhibition, tubes were incubated with an inhibitor cocktail comprising 100 μM/100 μL UO126, 1 μM/100 μL LY294002, and 1 μM/100 μL rapamycin. One unstimulated tube receiving no stimulant or inhibitor was processed to assess basal levels of phospho-protein expression. After stimulation the cells were immediately fixed in 10% formaldehyde solution at 37° C. Pre-labeling with CD13, CD16 and CD64 antibodies was carried out 20 minutes prior to formaldehyde fixation. After fixation, one set of tubes was permeabilized without methanol for pAKT, pERK and pS6 staining and the other for 80% methanol permeabilized for pSTAT3 and pSTAT5 staining. After permeablization, the cells were washed in PBS with 2% BSA and blocked by re-suspended in 75 μL of PBS comprising 25% heat inactivated normal mouse serum, 25% normal rabbit serum. To stain cells with fluorescent conjugated monoclonal antibodies, samples were incubated on ice for 45 minutes in 100 μL of an antibody staining solution including either: 1) CD15-Pacific Orange, CD34-Phycoerythrin-Texas Red, CD117-Phycoerythrin-Cyanin 5.5, CD45-Allophycocyanin-Alexa Fluor 750 (or CD45-Pacific Orange, in which case CD15-Pacific Orange was omitted), pS6-Pacific Blue, pERK-Alexa Fluor 488 and pAKT-Alexa Fluor 647 or 2) CD15-Pacific Orange, CD34-Phycoerythrin-Texas Red, CD117-Phycoerythrin-Cyanin 5.5, CD45-Allophycocyanin-Alexa Fluor 750 or CD45-Pacific Blue, pSTAT3-Alexa Fluor 488 and pSTAT5-Phycoerythrin. The stained cells were washed twice with ice cold PBS containing 2% BSA and centrifuged at 800 g for 6 minutes at 4° C. The supernatant was discarded and cells re-suspended in 250 μL of chilled wash buffer for data acquisition. Stained cells were examined using either GALIOS flow cytometer (Beckman Coulter) or CYAN ADP (Beckman Coulter) equipped with 488 nm, 405 nm and 635 nm lasers to detect the degree of fluorescence. Data were analyzed using FCS Express (De Novo Software, CA) analysis software.
(§3) Specific phosphoprotein expression of pERK, pS6, pAKT, pSTAT5, and pSTAT3 was examined in seven discrete phenotypically defined populations based on 7-color immunophenotyping (FIG. 1). The percent of responding (phosphorprotein positive) cells for each of these populations was determined from individual single parameter histograms based on a fixed integration region set on the inhibitor treated control at about 3% positives. […]

pS6 = assay: as above; type: cell-based, human; details: mean ± SD;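 as to pS6 S/N ratio: Phosphoprotein MFI normalized to lymphocyte MFI as internal negative control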
Method: as §1, §2, §3

B1: Interleukin- 3 (protein, UniProt P08700 20-152, looked up)
Interleukin-3: APMTQTTPLKTSWVNCSNMIDEIITHLKQPPLPLLDFNNLNGEDQDILMENNLRRPNLEAFNRAVKSLQNASAIESILKNLLPCLPLATAAPTRHPIHIKDGDWNEFRRKLTFYLKTLENAQAQQTTLSLAIF
notes: colony-stimulating cytokine
pAKT Percent (%) Responding Cells, Mean (pAKT; CD34^+ (CD34^+/CD117^+ cells)): 11.8 ± 11.0% | pAKT S/N ratio (pAKT; CD34^+ (CD34^+/CD117^+ cells)): 1.8 ± 0.8 | pAKT Percent (%) Responding Cells, Mean (pAKT; CD117^+ (CD34^−/CD117^+ cells)): 3.7 ± 4.0% | pAKT S/N ratio (pAKT; CD117^+ (CD34^−/CD117^+ cells)): 1.9 ± 1.0 | pAKT Percent (%) Responding Cells, Mean (pAKT; G1, immature myeloid cells): 3.4 ± 3.4% | pAKT S/N ratio (pAKT; G1, immature myeloid cells): 2.5 ± 1.2 | pAKT Percent (%) Responding Cells, Mean (pAKT; G2, intermediate myeloid cells): 5.3 ± 5.2% | pAKT S/N ratio (pAKT; G2, intermediate myeloid cells): 2.6 ± 1.1 | pAKT Percent (%) Responding Cells, Mean (pAKT; G3, mature myeloid cells): 5.6 ± 4.1% | pAKT S/N ratio (pAKT; G3, mature myeloid cells): 2.9 ± 1.4 | pAKT Percent (%) Responding Cells, Mean (pAKT; Mono, monocytes): 9.6 ± 14.6% | pAKT S/N ratio (pAKT; Mono, monocytes): 3.1 ± 1.7 | pS6 Percent (%) Responding Cells, Mean (pS6; CD34^+ (CD34^+/CD117^+ cells)): 33% | pS6 S/N ratio (pS6; CD34^+ (CD34^+/CD117^+ cells)): 39.5 ± 31.2 | pS6 Percent (%) Responding Cells, Mean (pS6; CD34^+ (CD34^+/CD117^+ cells), listed as IL3): 50.7 ± 11.3% | pS6 Percent (%) Responding Cells, Mean (pS6; CD117^+ (CD34^−/CD117^+ cells)): 33.2 ± 12.3% | pS6 S/N ratio (pS6; CD117^+ (CD34^−/CD117^+ cells)): 60.3 ± 49.5 | pS6 Percent (%) Responding Cells, Mean (pS6; G1, immature myeloid cells): 2.7 ± 1.5% | pS6 S/N ratio (pS6; G1, immature myeloid cells): 4.5 ± 2.4 | pS6 Percent (%) Responding Cells, Mean (pS6; G2, intermediate myeloid cells): 4.2 ± 3.3% | pS6 S/N ratio (pS6; G2, intermediate myeloid cells): 4.1 ± 2.3 | pS6 Percent (%) Responding Cells, Mean (pS6; G3, mature myeloid cells): 5.5 ± 3.1% | pS6 S/N ratio (pS6; G3, mature myeloid cells): 4.7 ± 2.6 | pS6 Percent (%) Responding Cells, Mean (pS6; Mono, monocytes): 71.4 ± 10.5% | pS6 S/N ratio (pS6; Mono, monocytes): 26.0 | pS6 S/N ratio (pS6; Mono, monocytes, listed as IL3): 26.0 ± 21.0

Source: US20130210034A1, “COMPLEX PHOSPHOPROTEIN ACTIVATION PROFILES” (BECKMAN COULTER, INC., priority 2005, published 2013)
